This assay has as its target Fatty-acid amide hydrolase 1 (Homo sapiens, UniProt O00519).

The chains behind the UniProt entries cited, without tags or fusion partners.
UniProt O00519, whole entry: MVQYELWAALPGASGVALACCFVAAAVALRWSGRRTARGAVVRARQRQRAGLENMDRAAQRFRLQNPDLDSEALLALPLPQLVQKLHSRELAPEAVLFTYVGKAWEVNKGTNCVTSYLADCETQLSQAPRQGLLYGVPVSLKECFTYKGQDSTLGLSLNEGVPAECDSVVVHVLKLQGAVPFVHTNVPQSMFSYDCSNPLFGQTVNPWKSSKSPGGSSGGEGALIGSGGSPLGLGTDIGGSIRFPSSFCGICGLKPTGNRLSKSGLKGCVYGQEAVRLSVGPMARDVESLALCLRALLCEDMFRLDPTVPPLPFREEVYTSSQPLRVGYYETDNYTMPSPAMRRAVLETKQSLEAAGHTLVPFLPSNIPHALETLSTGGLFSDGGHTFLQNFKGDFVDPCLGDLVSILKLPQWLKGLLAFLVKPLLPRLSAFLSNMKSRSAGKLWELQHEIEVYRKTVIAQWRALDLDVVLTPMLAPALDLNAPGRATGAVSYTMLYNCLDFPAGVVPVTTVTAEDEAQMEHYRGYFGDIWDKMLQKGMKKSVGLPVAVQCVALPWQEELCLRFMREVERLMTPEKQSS

`O=C(O)c1cccc(-c2cnc(C(=O)CCCCCCc3ccccc3)o2)n1`: the Tm stood at 64.3 °C.

In the case of `O=C(O)c1cccc(-c2cnc(C(=O)CCc3ccc(-c4ccccc4)cc3)o2)n1`, the Tm worked out at 63.6 °C.

(Values after ChEMBL document CHEMBL1151780, “Correlation of inhibitor effects on enzyme activity and thermal stability for the integral membrane protein fatty acid amide hydrolase” (Bioorg Med Chem Lett, 2008).)
